Entries after “also recorded” stand apart in the source; their conditions may differ. Read-outs that look alike come from different tables or passages of the source.
Experiments:
[1] = test system: central muscarinic receptors (M1 and M2); type: binding, rat; details: vs AF 30 (cis)
[2] = test system: high-affinity choline transport; experiment: High-affinity choline transport (from rat brain synoptosomes); type: biochemical
[3] = type: in vivo, Male Sprague-Dawley rats
[4] = test system: choline acetyltranferase; experiment: Choline acetyltranferase activity (from rat brain homogenates); type: biochemical
[5] = molecular target: central muscarinic receptors (M1) (Rattus norvegicus, UniProt P08482); type: binding; details: [^3 H]-PNZ versus [^3 H]-QNB displacement
[6] = type: in vivo, Sprague Dawley rats; details: LD50 divided by dose used in Radial Arm Maze (ip)

The chains behind the UniProt entries cited, without tags or fusion partners. Where a name states a change or a piece, a line headed by the entry shows the natural chain unless it says otherwise.
UniProt P08482: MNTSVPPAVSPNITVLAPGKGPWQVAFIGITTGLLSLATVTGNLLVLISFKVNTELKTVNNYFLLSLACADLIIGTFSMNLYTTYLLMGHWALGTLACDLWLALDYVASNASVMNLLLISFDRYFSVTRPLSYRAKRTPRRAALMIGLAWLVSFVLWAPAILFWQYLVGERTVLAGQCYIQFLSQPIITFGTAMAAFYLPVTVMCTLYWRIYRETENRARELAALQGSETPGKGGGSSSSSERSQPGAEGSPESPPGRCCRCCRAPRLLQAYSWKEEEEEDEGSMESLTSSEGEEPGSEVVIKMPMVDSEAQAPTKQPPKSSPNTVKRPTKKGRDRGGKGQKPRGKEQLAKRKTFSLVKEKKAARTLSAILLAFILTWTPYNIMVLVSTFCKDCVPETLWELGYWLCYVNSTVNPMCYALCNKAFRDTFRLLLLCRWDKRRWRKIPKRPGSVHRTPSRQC

Which results are given for `C[C@H]1O[C@]2(CS1)CN1CCC2CC1` (relative stereo) [AF102B]?
relative potency in [^3 H]-QNB displacement [1]: approximately twice as potent as AF 30 (cis); activity on high-affinity choline transport [2]: lack of any significant activity; ratio of side-effect dose (analgesia, hypothermia) to dose reversing AF64A-induced memory impairments ([3]; i.p.): 15-150 times; Therapeutic index ([3]; ip): 78-780; ratio of side-effect dose (analgesia, hypothermia) to dose reversing AF64A-induced memory impairments ([3]; p.o.): ≥ 40 times; activity on choline acetyltranferase [4]: lack of any significant activity; M1 selectivity [5]: more selective for M1 receptors by one order of magnitude than the rest of the tested compounds; also recorded: selective M1 agonist; also recorded: specific centrally active muscarinic M1-type agonist; Therapeutic index [6]: 15
